Data published in patent US6642389B2, “Oxazole derivatives” (Hoffmann-La Roche Inc., priority 2001, dated 2003).

What was measured:
PPARα [1] = target: T1, PPARα (Homo sapiens, UniProt Q07869); assay: Radioligand binding assay, PPARα receptor binding (GST-PPARα-LBD fusion protein)
T1 sequence (Q07869 167-468 limits assumed): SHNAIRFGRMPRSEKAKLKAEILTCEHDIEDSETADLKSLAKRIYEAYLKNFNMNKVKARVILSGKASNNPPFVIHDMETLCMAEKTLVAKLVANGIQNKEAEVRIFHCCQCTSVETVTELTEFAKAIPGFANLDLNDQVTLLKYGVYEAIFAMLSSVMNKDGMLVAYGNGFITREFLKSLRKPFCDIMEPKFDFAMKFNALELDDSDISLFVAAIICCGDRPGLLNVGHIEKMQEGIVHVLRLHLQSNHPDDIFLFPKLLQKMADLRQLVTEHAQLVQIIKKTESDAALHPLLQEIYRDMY
Excerpt: (§1) Full-length cDNA clones for human PPARα and mouse PPARγ were obtained by RT-PCR from human adipose and mouse liver cRNA, respectively, cloned into plasmid vectors and verified by DNA sequencing. […] To accomplish this, the portions of the cloned sequences encoding the LBDs were amplified from the full-length clones by PCR and then subcloned into the plasmid vectors pGEX4T-2(Pharmacia) and pFA-CMV(Stratagene). Final clones were verified by DNA sequence analysis.
Induction, expression, and purification of GST-LBD fusion proteins were performed in E. coli strain BL21(pLysS) cells by standard methods (Ref: Current Protocols in Molecular Biology, Wiley Press, edited by Ausubel et al.).
PPARα receptor binding was assayed in TKE10 (10 mM Tris-HCl, pH 8, 50 mM KCl, 2 mM EDTA, 0.1 mg/ml fatty acid free BSA and 10 mM DTT). […]
PPARγ receptor binding was assayed in TKE50 (50 mM Tris-HCl, pH 8, 50 mM KCl, 2 mM EDTA, 0.1 mg/ml fatty acid-free BSA and 10 mM DTT). […] All binding assays were performed in 96 well plates and the amount of bound ligand measured on a Packard TopCount using OptiPlates (Packard). Nonspecific binding was determined in the presence of 10^−4 M unlabelled compound. […]

PPARα [2] = target: T1, PPARα; assay: Luciferase transcriptional reporter gene assay, pFA-PPARα-LBD in BHK21 cells; assay type: cell-based; set-up: expressed in transfected cells; host or cells: BHK21 (ATCC CCL10)
Excerpt: as §1
Baby hamster kidney cells (BHK21 ATCC CCL10) were grown in DMEM medium containing 10% FBS at 37° C. in a 95% O2:5% CO2 atmosphere. […] Following incubation of the cells for 24 hours with substances, 50 ul of the supernatant was recovered and analyzed for SEAP activity (Roche Molecular Biochemicals). […] Luminescence for both SEAP and luciferase was measured in a Packard TopCount. Luciferase activity was normalized to the SEAP control and transcriptional activation in the presence of a test substance was expressed as fold-activation over cells incubated in the absence of the substance. EC50 values were calculated using the XLfit program (ID Business Solutions Ltd. UK).

## CN(CCOc1ccc(CC2SC(=O)NC2=O)cc1)c1ccccn1 (centres unmarked) [Rosiglitazone, reference compound]
PPARα [1]
  PPARα IC50: inactive
PPARα [2]
  PPARα EC50: inactive
